# Laboratory results as given in paper PMC2174572 (The Journal of Cell Biology, 2000).
# Target: nucleolin purified from K562 cells (human (endogenous in K562))
# Test: co-IP
binder,measurement,value
His6-tagged hRPA3 (His-hRPA3) (natural protein) MVDMMDLPRSRINAGMLAQFIDKPVCFVGRLEKIHPTGKMFILSDGEGKNGTIELMEPLDEEISGIVEVVGRVTAKATILCTSYVQFKEDSHPFDLGLYNEAVKIIHDFPQFYPLGIVQHD,binding result,binds
